Patent publication US20250144220A1, “CONJUGATE FOR PREVENTING AND TREATING VIRAL INFECTIONS AND USE THEREOF” (priority 2021, published 2025)

Biological target: Influenza A H1N1 (A/California/04/2009) Neuraminidase/NA (Influenza A virus (A/California/04/2009(H1N1)), UniProt C3W5S3)
Test: biochemical

SMILES: CC(=O)N[C@H]1[C@H]([C@H](O)[C@H](O)CO)OC(C(=O)O)=C[C@@H]1N=C(N)N [Zanamivir, zanamivir, reference compound]
- IC50: 1 nM
